Patent US6827926B2, “Metallotetrapyrrolic photosensitizing agents for use in photodynamic therapy” (Miravant Pharmaceuticals, Inc., priority 2001, dated 2004)
Where two headings read alike, the source gives them in different places.

Test system: normal skin of CD Hairless male rats
Format: in vivo, rat
Description: We tested metallo- and metal-free tetrapyrroles systemically (see following section) for normal skin response in relation to the pharmacodynamic distribution of the photosensitizers in CD hairless rats. The skin of CD hairless rats are poorly developed, often referred to as hyperkeratotic, with various sized cystic hair follicles containing concentric lamellar accumulations of keratinaceous material, which are often associated with enlarged sebaceous glands. It quickly became apparent that gallium tetrapyrroles induced a marked clearing of the hyperkeratotic lesions in the treatment areas on the hairless rats. In fact, this clearing could be induced without necrosis of the skin. No other metallotetrapyrrole type produced such effects. This observation led us to assess the metallotetrapyrrolic compounds for skin restructuring effects both topically and systemically and for their ability to reduce hair growth in the following animal models.
Photosensitizer normal skin response as well as skin healing response, was evaluated using CD Hairless male rats. Photosensitizers were administered in an liposomal egg yolk phospholipid formulation at 1, 1.5 and 2 μmol/kg body weight formulation per dose group as a single bolus intravenous injection given through a marginal tail vein using a 27 gauge needle and a 1 cc tuberculin syringe. Normal skin responses were evaluated by irradiating several spots on the skin of the rat with a 532 nm laser (150 mW/cm^2, 150J, 1 cm diameter) at 1, 6, 24, 48, and 96 hrs post injection. Normal skin responses were evaluated and documented. The time at which the last spot is observed at the concentration injected is reported in the far right hand column in Tables 3, 4, 5 and 6. Skin samples were taken for histological evaluation at days 1, 10, 20 and 22 post light treatment. Rats were housed under normal lighting and all study procedures involving the test article were conducted under light filtered through blue and green Roscolox light filters to prevent photoactivation or degradation of the drug.

[1] = Table 3, time of last skin spot observed post injection, 532 nm laser

## Aluminum Chloride 8,13-diethyl-3,7,12,17-tetramethylporphyrin-2,18-di(butanoic acid methyl ester) [Example 48]
[1]
  Normal skin Response (1 μmol): 24 h

## Gallium Chloride 8,13-diethyl-3,7,12,17-tetramethylporphyrin-2,18-di(butanoic acid methyl ester) [Example 26]
[1]
  Normal skin Response (1 μmol): 24 h

## Zinc 8,13-diethyl-3,7,12,17-tetramethylporphyrin-2,18-di(butanoic acid methyl ester) [Example 49]
[1]
  Normal skin Response (1 μmol): 24 h

## Gallium Chloride 7,8,12,13-tetraethyl-12,17-dimethyl-10-azaporphyrin-2,18-di(3′-hydroxypropyl) [Example 23]
Table 4, time of last skin spot observed post injection
  Normal skin Response (1 μmol): 96 h
